AlphaSeq binding of Ab-95 light chain variants to a spike HR2 peptide

Reference: Engelhart et al. 2022, doi:10.1038/s41597-022-01779-4. File: FLAb, binding data.

Antigen: PDVDLGDISGINAS, a 14-residue peptide of the SARS-CoV-2 spike HR2 region.

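Phage display of a naive human antibody library on the peptide gave the parent. Variants in AAYL52 differ from the parent at up to three CDR positions; double and triple changes were sampled at random. The scFvs were displayed on barcoded MATa yeast, the peptide on MATalpha yeast. Binding brings cells together so that they mate, and sequencing counts the barcode pairs among the diploids. Each replicate has its own calibration line, from reference interactions of the BCL2 family. Each pool was mated in three replicate cultures.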

Parent scFv Ab-95: VH joined to VL by a (GGGGS)3 linker. Changes lie in the light chain CDRs alone.
VH: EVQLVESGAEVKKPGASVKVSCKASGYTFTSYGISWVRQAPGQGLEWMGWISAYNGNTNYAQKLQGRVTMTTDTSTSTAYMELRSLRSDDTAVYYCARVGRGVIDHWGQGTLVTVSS
VL: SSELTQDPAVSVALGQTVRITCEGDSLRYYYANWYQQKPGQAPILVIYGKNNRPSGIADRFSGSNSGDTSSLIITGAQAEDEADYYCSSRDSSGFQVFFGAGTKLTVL

Variants are written as CDR1, CDR2 and CDR3 of the light chain (limits as in the source). Parent: EGDSLRYYYAN, GKNNRPS, SSRDSSGFQVF.
The read-out is the apparent dissociation constant on a log10 scale (nM): the lower, the stronger.
Where no diploid with the target was found in that replicate, the entry reads "ND": below detection, most likely a poor binder, though not proof of it.
Three control strains display no target. For library AAYL52, 28% of the pairings with them gave a signal, with a median of 3.91 and one signal in twenty below 2.90, so weak values seen in few replicates may be background. Also given: how often the same scFv was detected with the empty control strains, with their mean in brackets.
For reference, the parent read 2.31 as the reference entry and 2.25 as a member of this library.

| CDR-L1 | CDR-L2 | CDR-L3 | log10 Kd (nM) by replicate | control signals |
|---|---|---|---|---|
| EGDSLRYYYAY | GKNNRPP | SSRDKSGFQVF | 3.75 / ND / ND | 6/9 (4.19) |
| EGDSLRYYYAN | GDGNRPS | SSRASSGFQVF | 1.99 / 2.17 / 1.58 | 3/9 (4.43) |
| EGDSLLYYYAN | GKGNRPS | SSYDSSGFQVF | 2.75 / 2.15 / 3.35 | 2/9 (3.56) |
| EGDSLHYYYAN | GKNNRWS | SSQDSSGFQVF | ND / ND / ND | 0/9 |
| EGDSLRYYYAN | WKNNRPS | SSRDISGFQVF | 5.45 / 3.17 / ND | 2/9 (3.29) |
| EGDSLRYYYAN | GKNNRPS | SERDSSGFQVF | ND / ND / ND | 2/9 (3.69) |
| KGDSLRYYYAN | GKNNRPS | SSRDISGFQVF | 2.92 / 2.76 / 2.25 | 3/9 (4.45) |
| EPDSLRYYYAN | GKNNRPS | SSRPFSGFQVF | ND / 3.92 / ND | 2/9 (4.26) |
| EGETCRYYYAN | GKNNRPS | SSRDSSGFQVF | ND / ND / 3.30 | 1/9 (3.84) |
| EGTSLRYYYAN | GKNNRPS | DSRDSFGFQVF | 3.08 / 2.22 / 1.90 | 2/9 (4.11) |
| EGDSLRYYYAN | GKNNYPS | SSRDSSGFQHF | 3.59 / 5.27 / 3.44 | 2/9 (3.24) |
| EGDSLRYYYAN | GKNNWPL | SSYDSSGFQVF | 3.61 / 5.47 / ND | 2/9 (4.08) |
| EGDSLRYYYAN | GNNNRPS | SSCDLSGFQVF | ND / 3.72 / 4.03 | 3/9 (3.97) |
| EGDHLRYRYAN | GKNNRPS | HSRDSSGFQVF | 2.77 / 2.79 / 2.75 | 2/9 (4.37) |
| EDDSLRYYYAN | GKNNFPS | SSRDSSGFQNF | 3.19 / ND / ND | 3/9 (4.80) |
| EGFSLRYYYAN | GKKNRPS | SSRDSSGFQVF | ND / 3.87 / ND | 2/9 (4.41) |
| EGDSLREYNAN | GKNNRPS | SSRDSSNFQVF | 2.02 / 1.95 / 1.81 | 2/9 (3.36) |
| EGDSLVYYYAN | GNNARPS | SSRDSSGFQVF | 2.71 / 2.61 / 2.28 | 3/9 (3.95) |
| EGDSLRYYYAN | GKINRCS | SSRDSSIFQVF | ND / ND / 3.74 | 2/9 (4.03) |
| EGDSLSYYYAN | GKNNRPS | SSRDSSCFQVK | ND / ND / ND | 4/9 (4.45) |
| EGDSLRYYYIN | GKNNRRS | SSRDSSGFQVE | ND / ND / ND | 2/9 (2.93) |
| EGDSLQYYYRN | GKNRRPS | SSRDSSGFQVF | 4.64 / 5.10 / ND | 3/9 (3.49) |
| RGDSLLYYYAN | GKNNLPS | SSRDSSGFQVF | 2.38 / 2.42 / 2.21 | 2/9 (3.22) |
| EWDSLGYYYAN | GKNNRPS | SSRDSSGFPVF | 3.85 / ND / 3.69 | 4/9 (4.07) |
| YGDSLRYYYAN | GKANRPS | SSRDSSGFQVF | 2.94 / 3.17 / 2.28 | 4/9 (3.93) |
| EMDQLRFYYAN | GKNNRPS | SSRDSSGFQVF | 4.66 / 3.52 / 4.56 | 5/9 (4.42) |
| EGDSLRYVYAN | GKNNRPS | SSRDSSMFQVG | 2.39 / 2.17 / 1.61 | 3/9 (4.57) |
| EENSLRYYYAN | GKNNRPS | SSRDSSGFDVF | ND / ND / ND | 1/9 (3.06) |
| EGDSQRMYYAN | GKNNRPS | ASRDSSGFQVF | 2.95 / 3.13 / 3.51 | 6/9 (3.68) |
| AGDSLRYYYAP | GKNNRPS | SSRDSSGFQVF | ND / ND / ND | 4/9 (4.18) |
| HGDSLRYYYAN | GKNNRPS | SSRDSSDFQVW | 2.70 / 2.45 / 2.00 | 3/9 (3.68) |
| EGTSLRKHYAN | GKNNRPS | SSRDSSGFQVF | 2.31 / 1.89 / 2.12 | 1/9 (3.52) |
| EGDSLRYYDAN | GKNNWKS | SSRDSSGFQVF | ND / 3.28 / 2.60 | 3/9 (3.24) |
| EGDSLRYYYAN | GKNNRVS | SSRDSSCFRVF | 2.51 / 2.51 / 2.02 | 6/9 (3.25) |
| EGQSLRYYYAN | AKNNRPS | SSRDSSGQQVF | 3.21 / 3.94 / 3.44 | 3/9 (3.24) |
| EGDSLRYYYAN | GKNNRRW | SSRDSSGFQLF | 2.84 / 3.32 / 2.62 | 2/9 (4.08) |
| EGDSLRYYYAN | GKNNRPA | ESRDSSGFQVF | 1.85 / 1.77 / 1.28 | 3/9 (4.37) |
| EGDSLRYYYMN | GNNNRPS | SSRDSSGFPVF | 2.00 / 1.87 / 1.56 | 3/9 (3.82) |
| EGDSLRYYYCN | GKNNRPS | SSRDSSGMQVF | 2.92 / 4.42 / 3.35 | 0/9 |
| EGDSLRYWYAN | GKNNRPS | SSRDSSGNRVF | 3.16 / 2.14 / 2.94 | 4/9 (4.07) |
| EGDSPAYYYAN | GKNNRPS | SSRDSPGFQVF | 3.67 / ND / ND | 2/9 (4.58) |
| EGDSLRYYKAN | GKNNRPS | SSRLSSGFQGF | 2.65 / 3.07 / 2.59 | 3/9 (3.54) |
| SGDNLNYYYAN | GKNNRPS | SSRDSSGFQVF | 2.85 / 2.85 / 2.54 | 4/9 (4.10) |

5 of these entries, quoted again:

CDR-L1	CDR-L2	CDR-L3	log10 Kd (nM) by replicate	control signals
EGDSLVYYYAN	GNNARPS	SSRDSSGFQVF	2.71 / 2.61 / 2.28	3/9 (3.95)
EMDQLRFYYAN	GKNNRPS	SSRDSSGFQVF	4.66 / 3.52 / 4.56	5/9 (4.42)
EGQSLRYYYAN	AKNNRPS	SSRDSSGQQVF	3.21 / 3.94 / 3.44	3/9 (3.24)
EGDSLRYYYAN	WKNNRPS	SSRDISGFQVF	5.45 / 3.17 / ND	2/9 (3.29)
YGDSLRYYYAN	GKANRPS	SSRDSSGFQVF	2.94 / 3.17 / 2.28	4/9 (3.93)